This is an account of results in patent US10793530B2, “Benzylaminopyrazinylcyclopropanecarboxylic acids, pharmaceutical compositions and uses thereof” (Boehringer Ingelheim International GmbH, priority 2017, dated 2020).

By UniProt entry, the sequences of proteins in these tests, tags left out.
UniProt O14842, whole entry: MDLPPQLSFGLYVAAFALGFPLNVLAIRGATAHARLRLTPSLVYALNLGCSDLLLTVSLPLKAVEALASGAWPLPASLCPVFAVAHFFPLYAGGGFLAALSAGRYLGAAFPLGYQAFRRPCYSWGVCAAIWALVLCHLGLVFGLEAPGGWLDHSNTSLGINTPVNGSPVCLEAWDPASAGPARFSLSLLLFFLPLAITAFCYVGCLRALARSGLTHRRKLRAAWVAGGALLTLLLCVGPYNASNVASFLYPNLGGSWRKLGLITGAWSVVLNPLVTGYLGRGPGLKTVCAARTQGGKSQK

Molecules are shown by their SMILES.

This test has as its target human GPR40 receptor (Homo sapiens, UniProt O14842). In words: IP1 accumulation measurements using the IPOne assay system. In kind it is cell-based. The settings on record: 1321N1 cells stably expressing human GPR40 receptor; stimulated 1 h at 37° C. On the procedure: IP1 is assayed according to the manufacturers description (Cisbio Bioassays, France). In brief, the assay is started by substitution of the culture medium by stimulation buffer (Hepes 10 mM, CaCl2 1 mM, MgCl2 0.5 mM, KCl 4.2 mM, NaCl 146 mM, glucose 5.5 mM and LiCl 50 mM, pH 7.4). Cells are stimulated for 1 h at 37° C., 5% CO2 by addition of the compounds that are diluted in stimulation buffer containing LiCl. Assays are stopped by adding HTRF-conjugates (IP1-d2 and Anti-IP1 cryptate Tb) and lysis buffer, provided by the manufacturer. After an incubation time of 1 h at room temperature plates are measured using an EnVision™, Perkin Elmer. The obtained fluorescence ratios at 665/615 […] are then used to calculate the pEC50 values using Assay Explorer 3.3 Software (Accelrys, Inc.) by interpolation using an IP1 reference curve and subsequent sigmoidal curve fitting allowing for a variable hill slope.
`Cc1cc(-c2ccn(C)c(=O)n2)cc(C)c1-c1ccc(F)c(CNc2cnc(C3CC3C(=O)O)cn2)c1` (single isomer, unassigned): the EC50 turned out to be 278 nM.
With `Cc1cc(-c2ccnn2C)cc(C)c1-c1ccc(F)c(CNc2cnc(C3CC3C(=O)O)cn2)c1` (single isomer, unassigned), the EC50 stood at 72 nM.
Next, `Cc1cc(-c2cnccn2)cc(C)c1-c1ccc(F)c(CNc2cnc(C3CC3C(=O)O)cn2)c1` (single isomer, unassigned): 14 nM; `Cc1cc(C#N)cc(C)c1-c1ccc(F)c(CNc2cnc(C3CC3C(=O)O)cn2)c1` (single isomer, unassigned): 984 nM.
The value for `Cc1cc(OCc2ccccc2)cc(C)c1-c1ccc(F)c(CNc2cnc(C3CC3C(=O)O)cn2)c1` (single isomer, unassigned) was 23 nM; that for `Cc1cnc(-c2cc(C)c(-c3ccc(F)c(CNc4cnc(C5CC5C(=O)O)cn4)c3)c(C)c2)nc1` (single isomer, unassigned) was 389 nM.
The value for `Cc1cc(OC2CCOC2)cc(C)c1-c1ccc(F)c(CNc2cnc(C3CC3C(=O)O)cn2)c1` (stereo not shown) [Example 42] was 25 nM.
